This is a selection; strong and weak results do not stand in their true shares. Results with a measured potency or affinity are listed apart. Active and inactive are the calls of the source.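 Rule for the calls: active = spots per cell inhibited over 60%, with over 100 cells counted and total cytoplasm intensity under 500,000; inconclusive = wells with under 100 cells, flagged as likely toxic; inactive = the rest.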

Chains of the proteins cited; added tags and fusions are not shown.
UniProt Q9Y2T6, whole entry: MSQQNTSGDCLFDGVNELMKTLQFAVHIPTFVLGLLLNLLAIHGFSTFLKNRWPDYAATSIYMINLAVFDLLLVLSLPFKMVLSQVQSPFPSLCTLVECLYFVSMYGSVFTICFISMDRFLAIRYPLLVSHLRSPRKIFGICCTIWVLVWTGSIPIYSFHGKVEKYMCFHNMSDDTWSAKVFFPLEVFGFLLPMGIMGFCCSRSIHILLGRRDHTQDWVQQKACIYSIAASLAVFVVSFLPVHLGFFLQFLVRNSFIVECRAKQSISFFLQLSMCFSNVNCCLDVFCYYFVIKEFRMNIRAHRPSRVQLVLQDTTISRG

This assay has as its target G-protein coupled receptor 55 (Homo sapiens) (UniProt Q9Y2T6). Nature of the assay: inhibition of LPI-stimulated GPR55 beta-arrestin translocation – imaging, U2OS, beta-arrestin-GFP, LPI agonist, primary screen (AID 2013).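 Note: U2OS cells stably carrying GPR55 and arrestin-GFP stimulated by 5 µM LPI near EC80; imaged beta-arrestin-GFP aggregate spots per cell after agonist stimulation; plate controls were LPI-stimulated DMSO wells for no effect and DMSO wells without LPI for full effect.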 Particulars: LPI antagonism, at 10 µM, active compounds read high.
Regarding `COc1cc(C(=O)NCC2(N(C)C)CCCCC2)ccc1OC(F)F`, the inhibition is inactive: 0.6%.

Take `CCOC(=O)N1CCC(Nc2cccc(C)c2)CC1`: the inhibition is inactive: -9.2%.

On to `O=C(NCC1(N2CCCCC2)CCCCC1)c1ccc(F)cc1`, for which the inhibition was inactive: -1.9%.

`CCOC(=O)N1CCC(Nc2ccc(F)cc2)CC1`: the inhibition is inactive: -6.7%.

With `COc1ccc(NC2CCN(CCc3ccccc3)CC2)c(OC)c1`, the inhibition is inactive: 11.1%.

`CCOc1ccc(C)cc1CN(CCCl)CCCl`: the inhibition is inactive: 19%.

On to `CCOC(=O)N1CCC(Nc2ccc(OC)cc2)CC1`, for which the inhibition was inactive: 8.3%.

As for `O=C(OC1CN2CCC1CC2)C1c2ccccc2Oc2ccccc21` (configuration not stated), the inhibition is inactive: 17.5%.

For the compound `N#CC1(Nc2ccccc2)CCN(Cc2ccccc2)CC1`, the inhibition is inactive: -5%.

On to `O=C(NCC1(N2CCOCC2)CCCCC1)c1cc2ccccc2o1`, for which the inhibition was inactive: 14.8%.

As to `Cc1cc(C)cc(N(C(=O)c2ccccc2)C2CCN(C(=O)OC(C)(C)C)CC2)c1`, the inhibition was inactive: -13.1%.

As for `CSc1ccccc1C(=O)NCC1(N2CCCCC2)CCCCC1`, the inhibition was inactive: 8.1%.

For the compound `O=C(NCC1(N2CCCCC2)CCCCC1)c1ccc(=O)[nH]c1`, the inhibition is inactive: 13.3%.

`COc1ccc(C(=O)NCC2(N3CCCCC3)CCCCC2)cc1`: the inhibition was inactive: 9.6%.

Turning to `CC(C)(C)OC(=O)N1CCC(N(C(=O)c2ccccc2)c2ccc(F)cc2)CC1`, the inhibition was inactive: 2.4%.

For the compound `COc1ccc(C(=O)NCC2(N3CCCCC3)CCCCC2)c(OC)c1OC`, the inhibition is inactive: -1.3%.

For `CCCOc1ccc(C(=O)NCC2(N(C)C)CCCCC2)cc1OC`, the inhibition was inactive: 4.9%.

For `COc1cc(OC)c(C(=O)NCC2(N(C)C)CCCCC2)cc1OC`, the inhibition is inactive: -5.2%.

Consider `COc1ccc(CN(CCCl)CCCl)cc1Cl`, for which the inhibition is inactive: 7.9%.

Consider `CN(C)c1cccc(C(=O)NCC2(N3CCCCC3)CCCCC2)c1`, for which the inhibition was inactive: -1.3%.

`CC(C)c1ccc(NC2CCN(C(=O)OC(C)(C)C)CC2)cc1`: the inhibition is inactive: 0.6%.

`COc1ccc(NC2CCN(C(=O)OC(C)(C)C)CC2)cc1`: the inhibition is inactive: 10.5%.

For `CN1CCN(CCOC(=O)C(O)(c2ccccc2)c2ccccc2)CC1`, the inhibition was inactive: 6.6%.

Take `O=C(NCC1(N2CCOCC2)CCCCC1)c1cc(=O)[nH]c2ccccc12`: the inhibition was inactive: -0.3%.

On to `COc1cc(C(=O)NCC2(N3CCCCC3)CCCCC2)ccc1OC(F)F`, for which the inhibition is inactive: 2%.

In the case of `O=C(NCC1(N2CCCCC2)CCCCC1)c1cccc(C(F)(F)F)c1`, the inhibition is inactive: 17.7%.

For `O=C(NCC1(N2CCCCC2)CCCCC1)c1cccc([N+](=O)[O-])c1`, the inhibition was inactive: -4.4%.

With `CCN1CCC(Nc2ccc(Cl)cc2)CC1`, the inhibition was inactive: 2.7%.

On to `N#CC1(Nc2ccccc2)CCN(CCc2ccccc2)CC1`, for which the inhibition is inactive: -3.7%.

`O=C(NCC1(N2CCCCC2)CCCCC1)c1ccc(OC(F)F)cc1`: the inhibition is inactive: 5.3%.

For the compound `c1ccc(CN2CCC(Nc3ccccc3)CC2)cc1`, the inhibition was inactive: -2.9%.

Turning to `CCCN1CCC(Nc2cc(OC)cc(OC)c2)CC1`, the inhibition was inactive: 8.8%.

`CN(C)C1(CNC(=O)c2cccc(C#N)c2)CCCCC1`: the inhibition is inactive: 11.7%.

For `CC(C)(C)OC(=O)N1CCC(N(C(=O)c2ccccc2)c2ccc(Cl)cc2)CC1`, the inhibition is inactive: -3.2%.

Turning to `N#Cc1ccc(C(=O)NCC2(N3CCCCC3)CCCCC2)cc1`, the inhibition was inactive: 4%.

As for `O=C(OC1CN2CCC1CC2)C1c2ccccc2C=Cc2ccccc21` (configuration not stated), the inhibition was inactive: -10.9%.

As to `N/C(=N\O)c1c(N)no[n+]1[O-]`, the inhibition is inactive: 2.5%.

For the compound `CCOC(=O)N1CCC(Nc2ccc(C)cc2)CC1`, the inhibition is inactive: -0.6%.

With `COc1ccc(C(=O)NCC2(N3CCOCC3)CCCCC2)cc1OC`, the inhibition was inactive: 8.6%.

`CN1CCC(Nc2ccc(Cl)cc2)CC1`: the inhibition is inactive: 6.8%.

Regarding `CCC(CO)(C(=O)OC1CN2CCC1CC2)c1ccccc1` (configuration not stated), the inhibition was inactive: -18.7%.

In the case of `COc1cccc(C(=O)N(c2cc(C)cc(C)c2)C2CCN(C(=O)OC(C)(C)C)CC2)c1`, the inhibition is inactive: 1.9%.

As to `COc1cc(OC)cc(C(=O)NCC2(N3CCOCC3)CCCCC2)c1`, the inhibition was inactive: 6.7%.

Turning to `CCCOc1ccc(C(=O)NCC2(N(C)C)CCCCC2)cc1`, the inhibition was inactive: -7.9%.

Turning to `CC(C)(C)OC(=O)N1CCC(Nc2ccccc2)CC1`, the inhibition was inactive: -1.9%.

For the compound `O=C(O)C1(Nc2ccccc2)CCN(Cc2ccccc2)CC1`, the inhibition was inactive: 4%.

Consider `CCOc1ncccc1C(=O)NCC1(N2CCOCC2)CCCCC1`, for which the inhibition is inactive: 7.7%.

For `CN1CCC(Nc2ccc(F)c(Cl)c2)CC1`, the inhibition is inactive: -2.2%.

As for `CN(C)c1ccc(C(=O)NCC2(N3CCCCC3)CCCCC2)cc1`, the inhibition was inactive: 14.1%.

As for `CCN1CCC(Nc2cccc(F)c2)CC1`, the inhibition is inactive: -3.8%.

Regarding `Fc1ccccc1NC1CCN(Cc2ccccc2)CC1`, the inhibition was inactive: -0.3%.

On to `COc1cc(OC)cc(C(=O)NCC2(N3CCCCC3)CCCCC2)c1`, for which the inhibition is inactive: 0.3%.
